We go through 93 compounds from PubChem BioAssay AID743398 (Broad Institute, 2014).

The list shows a part of the results, in another mix than the full data. The source made the active and inactive calls. Cut-off read from the data, not from the text of the source: active = activation above about 30% (passing the limit was not always enough); inconclusive = no clear call, values can overlap the other calls.

The experiment in a line: activation of beta-catenin signaling reporter – cell-based, plate reader, single point, primary screen (AID 743398).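 Note: 0% = neutral control wells and 100% = positive control wells.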 Particulars: Wnt/beta-catenin reporter cell assay, activator, at 9.35 µM, hits give high values.
On to `CN(C(=O)Cc1ccc(Cl)c(Cl)c1)C1CCCC[C@@H]1N1CCCC1` (stereo partly drawn), for which the activation is inactive: -2.13%. As for `CCOP(=O)(Nc1ccc(C)cn1)OCC`, the activation was inactive: 23.8%. Next, `CN(CCCl)Cc1cc(Cl)c(NC2=NCCN2)c(Cl)c1`: inactive: -0.819%.

Regarding `CCC1=CC2Cc3nc4ccc(Cl)cc4c(N)c3C(C1)C2` (stereo not drawn), the activation is inactive: -5.46%. Take `O=P1(Nc2ccccn2)COc2ccccc2OC1`: the activation was inactive: -2.56%. `CCOP(=O)(NC(=NC(C)c1ccccc1)NC(C)c1ccccc1)OCC` (stereo not drawn): the activation is inactive: -2.11%. In the case of `O=P1(N(CCCl)CCCl)NCCC(C(F)(F)F)O1` (stereo not drawn), the activation was inactive: -3.85%. With `CC(C)(C)C(=O)NC(Sc1ncccn1)C(Cl)(Cl)Cl` (stereo not drawn), the activation was inactive: -0.783%. Regarding `O=P1(Nc2ncccn2)COc2ccccc2OC1`, the activation is inactive: 7.61%. `Cc1ccc(S(=O)(=O)N(CCCN)CCCc2c(C)nc(N)[nH]c2=O)cc1`: the activation was inactive: -0.671%. Take `O=[As](O)(c1cccs1)c1cccs1`: the activation was inactive: 2.96%. In the case of `NS(=O)(=O)c1cccc(NC(=O)COC(=O)C(O)(c2ccccc2)c2ccccc2)c1`, the activation was inactive: -2.5%. In the case of `Nc1cccc([As](=O)(O)c2ccccc2)c1`, the activation is inactive: 2.17%. In the case of `Cc1ccc(C(=O)OC2CN3CCC2CC3)cc1` (stereo not drawn), the activation is inactive: -0.378%. Take `CC1CCC(C(C)C)C(OP(=O)(Nc2ccccn2)c2ccccc2)C1` (stereo not drawn): the activation was inactive: -4.94%. Take `O=C(/C=C/c1ccccc1)OC1CN2CCC1CC2` (stereo not drawn): the activation is inactive: 1.15%. For the compound `CCCC1OP(=O)(Nc2ccccc2)OCC1CC` (stereo not drawn), the activation is inactive: -2.24%.

For `CN(C)C1(CNC(=O)c2ccc(S(C)(=O)=O)cc2)CCCCC1`, the activation is inactive: -0.462%. In the case of `O=[N+]([O-])c1ncn(CCn2cnc([N+](=O)[O-])n2)n1`, the activation was inactive: -6.21%. As to `CC(=O)NC(SC(=S)N(C)C)C(Cl)(Cl)Cl` (stereo not drawn), the activation is inactive: 10.3%. Take `O=[As](O)(c1ccccc1)c1ccc(O)cc1`: the activation is inactive: -1.22%. Turning to `C/C(N)=N\P(=O)(OCc1ccccc1)OCc1ccccc1`, the activation was inactive: -1.05%. As to `C(Cc1nn[nH]n1)Cc1nn[nH]n1`, the activation is inactive: -0.404%.

Take `Nc1ccc([As](=O)(O)c2ccc([N+](=O)[O-])cc2)cc1`: the activation is inactive: -1.65%.

Consider `COc1ccc(N)c([N+](=O)[O-])c1[N+](=O)[O-]`, for which the activation is inactive: -5.91%. Next, `Nc1ccc(CCCCOc2ccccc2)cc1`: inactive: 1.61%.

As for `CN(C)C1(CNC(=O)c2ccc(Cl)c(S(N)(=O)=O)c2)CCCCC1`, the activation is inactive: 0.2%.

With `O=P(Nc1ccccn1)(c1ccc(Br)cc1)c1ccc(Br)cc1`, the activation was inactive: -4.85%.

As to `O=P(Nc1nc2ccccc2s1)(c1ccccc1)c1ccccc1`, the activation is inactive: -1.67%.

In the case of `C[C@H]1OP(=O)(Oc2ccccc2)[C@H](O)[C@H](O)[C@H]1N=[N+]=[N-]` (stereo partly drawn), the activation is inactive: 2.22%. Consider `CC(C)C(=O)NC(Sc1ccccc1)C(Cl)(Cl)Cl` (stereo not drawn), for which the activation is inactive: 4.42%.

In the case of `CC(=O)c1ccc(N2CC2c2ccncc2)cc1` (stereo not drawn), the activation is inactive: 1.84%. `N#C/C(=C\c1ccc(N(CCBr)CCBr)cc1)C(N)=O`: the activation is inactive: 1.81%. For `COC(=O)C1(C)COP(=O)(NCc2ccccc2)OC1` (stereo not drawn), the activation is inactive: 0.888%. For `Cc1ccccc1CN(C)C(=O)COC(=O)C(O)(c1ccccc1)c1ccccc1`, the activation was inactive: -2.14%. For the compound `C[C@H]1OP(=O)(Oc2ccccc2)C[C@@H]2O[C@@H]21` (stereo partly drawn), the activation is inactive: -1.77%. Turning to `C[C@@H]1C=CCP(=O)(Oc2ccccc2)O1` (stereo partly drawn), the activation is inactive: -0.738%.

For `CC(=O)Nc1ccc([As](=O)(O)O)c(O)c1`, the activation was inactive: 8.41%.

As to `CC(=O)Nc1ccc(Oc2c([N+](=O)[O-])cc([N+](=O)[O-])cc2[N+](=O)[O-])cc1`, the activation is inactive: -0.666%.

For `CCOc1ccc(C2=NCC(CBr)S2)cc1` (stereo not drawn), the activation was inactive: 4.55%. Next, `CCc1cc(O)c([N+](=O)[O-])c(C)c1[N+](=O)[O-]`: inactive: 5.42%; `CC(C)(C)C(=O)NC(Sc1ccccc1)C(Cl)(Cl)Cl` (stereo not drawn): inactive: -1.05%. Next, `Cc1ccc(OP(=O)(Nc2ccccn2)Oc2ccc(C)cc2)cc1`: inactive: -0.662%.

On to `CC(=O)NC(SC(=S)N(CC(C)C)CC(C)C)C(Cl)(Cl)Cl` (stereo not drawn), for which the activation was inactive: 1.64%. For `O=C(OC1CN2CCC1CC2)c1ccccc1` (stereo not drawn), the activation is inactive: 3.92%. Next, `CC(NC(=O)COC(=O)C(O)(c1ccccc1)c1ccccc1)c1ccccc1` (stereo not drawn): inactive: -1.36%. Consider `Cc1ccccc1OP(=O)(Nc1ccccn1)Oc1ccccc1C`, for which the activation is inactive: -1.8%.

On to `O=c1c2cc([N+](=O)[O-])ccc2[nH]c2c([N+](=O)[O-])cc([N+](=O)[O-])cc12`, for which the activation was inactive: -0.71%.

In the case of `CN(C)C(=O)Oc1noc2ccccc12`, the activation is inactive: -0.409%. As to `O=C(NC1CCS(=O)(=O)C1)NP(=S)(Oc1ccccc1)Oc1ccccc1` (stereo not drawn), the activation is inactive: -0.08%. Take `CCNC(=S)/N=C(\N)N[N+](=O)[O-]`: the activation is inactive: -2.43%. Turning to `c1ccc(-c2nn[nH]n2)c(-c2nn[nH]n2)c1`, the activation was inactive: -1.7%. Consider `Cc1ccc(NP(=O)(Oc2cccc(C)c2)Oc2cccc(C)c2)nc1`, for which the activation is inactive: -0.728%. Consider `O=P1(N(CCCl)CCCl)OCCC2CCCCN21` (stereo not drawn), for which the activation was inactive: 0.836%.

Turning to `CN(C(=O)Cc1ccccc1)C1CC[C@@]2(CCCO2)C[C@@H]1N1CCCC1` (stereo partly drawn), the activation is inactive: 2.4%. With `CCN(N=Nc1nonc1N)c1nonc1N`, the activation was inactive: -3.88%. Regarding `Nc1cccc2ccc([As](=O)(O)O)cc12`, the activation was inactive: 0.745%. Turning to `CC(=O)Nc1ccc([As](=O)(O)O)cc1`, the activation was inactive: -0.842%.

`O=C(O)c1ccccc1[As](=O)(O)O`: the activation was inactive: -0.738%. Turning to `CCCC1OP(N)(=O)OCC1CC` (stereo not drawn), the activation is inactive: -4.34%. For the compound `O=P(Nc1nc2ccc(Cl)cc2s1)(c1ccccc1)c1ccccc1`, the activation is inactive: 2.68%.

Consider `CN(C)P(=O)(N(C)C)n1c(Nc2ccccc2)nnc1-c1ccccc1`, for which the activation is inactive: -0.823%.

Regarding `Cc1cc(SC(NC(=O)c2ccc(F)cc2)C(Cl)(Cl)Cl)ncn1` (stereo not drawn), the activation is inactive: 6.35%. As to `CCOP(=O)(Nc1ccccc1)OCC`, the activation was inactive: -2%. For the compound `CN(C(=O)Cc1ccc(Cl)c(Cl)c1)[C@H]1CCCC[C@@H]1N1CCCC1`, the activation is inactive: -1.85%.

With `Cc1ccc(NP(=O)(Oc2ccccc2F)Oc2ccccc2F)nc1`, the activation is inactive: 1.98%.

Take `CCn1c(=O)n(C2CCN(CC3CCCCCCC3)C[C@H]2CO)c2ccccc21` (stereo partly drawn): the activation was inactive: -2.38%. Consider `Nc1cc(N)c2nonc2c1[N+](=O)[O-]`, for which the activation was inactive: -1.37%. For `CC(C)CC(=O)NC(Sc1ccc(Cl)cc1)C(Cl)(Cl)Cl` (stereo not drawn), the activation was inactive: -6.01%.

For the compound `O=C(NC(Sc1ccncn1)C(Cl)(Cl)Cl)c1ccccc1` (stereo not drawn), the activation is inactive: -0.862%. Next, `NC(=O)c1cc([N+](=O)[O-])cc([N+](=O)[O-])c1N`: inactive: 0.125%. Next, `CN(C(=O)Cc1ccc(Cl)c(Cl)c1)[C@H]1CCCC[C@H]1N1CCCC1`: inactive: 1.28%; `Cc1ccc(N/C(=N/P(=O)(N2CCOCC2)N2CCOCC2)N2CCOCC2)cc1`: inactive: -0.478%. `COc1ccccc1OP(=O)(Nc1ccc(C)cn1)Oc1ccccc1OC`: the activation is inactive: -1.99%. With `Cc1ccc(OP(=O)(Nc2nccs2)Oc2ccc(C)cc2)cc1`, the activation is inactive: 7.06%. Consider `Clc1ccc(Cl)c(NC2=NCC(CBr)S2)c1` (stereo not drawn), for which the activation is active: 54.5%. For the compound `Nc1ccc([As](=O)(O)c2ccc(N)cc2)cc1`, the activation was inactive: 2.3%. Next, `C[N+]1=C2C=CC=CC=C2SC12C([N+](=O)[O-])=CC([N+](=O)[O-])=C[C-]2[N+](=O)[O-]` (stereo not drawn): inactive: 4.69%; `CCN(/C(=N/P(=O)(N1CCOCC1)N1CCOCC1)N1CCOCC1)c1ccc(OC)cc1`: inactive: -0.159%. Next, `CC(C)c1nc(Nc2ccccc2)n(P(=O)(N(C)C)N(C)C)n1`: inactive: -2.24%; `CC(C)=N/N=C(\N)N[N+](=O)[O-]`: inactive: -2.22%. As for `c1cc(-c2nn[nH]n2)ccc1-c1nn[nH]n1`, the activation was inactive: -3.2%.

Consider `COc1ccc(C2=NCC(CBr)S2)cc1` (stereo not drawn), for which the activation was inactive: -0.319%. For `O=[N+]([O-])c1cccc2n[nH]nc12`, the activation was inactive: -0.981%. `Cc1ccc(NP(=O)(Oc2ccccc2)Oc2ccccc2)nc1`: the activation was inactive: -2.24%. Next, `O=[N+]([O-])c1cc([N+](=O)[O-])c(CCNc2ccccc2)c([N+](=O)[O-])c1`: inactive: -1.24%; `CC(C)(C)C(=O)NC(Sc1ccncn1)C(Cl)(Cl)Cl` (stereo not drawn): inactive: 0.607%. As to `O=[N+]([O-])c1ncn(CCn2ncnc2[N+](=O)[O-])n1`, the activation is inactive: 16.2%. In the case of `COC(=O)C1(C)COP(=O)(Nc2ccccc2)OC1` (stereo not drawn), the activation is inactive: 11%. Next, `O=[N+]([O-])c1cccc(NC2=NCC(CBr)S2)c1` (stereo not drawn): inactive: -3.62%; `O=C(O)CNc1ccc([As](=O)(O)O)cc1`: inactive: -3.09%; `O=P1(N(CCCl)CCCl)OCCCS1` (stereo not drawn): inactive: -3.91%. With `O=C(Nc1cc([As](=O)(O)O)ccc1O)c1ccccc1`, the activation was inactive: -1.08%.
